From patent publication US20080071116A1, “Modulators of Lysophosphatidic Acid (Lpa) Signaling and the Use Thereof” (THE BOARD OF REGENTS OF THE UNIVERSITY OF TEXAS SYSTEM, priority 2004, published 2008)

Columns and labels:
PKA = PKA activation in PC-3 cells; format: cell-based, human
LNCaP cells = assay: calcium mobilization in androgen sensitive prostate cancer LNCaP cells
[1] = system: vasodilator-stimulated protein (VASP); assay: VASP phosphorylation in PC-3 cells
p38-MAPK = p38-MAPK activation, phosphospecific antibodies; settings: PC-3 and DU145 cells
AKT = AKT phosphorylation immunoblot in prostate cancer cells; format: cell-based, human; settings: PC-3 and DU145 cells
PC-3 cells [2] = assay: calcium mobilization assay in androgen insensitive prostate cancer PC-3 cells; settings: read-out: EC50 of calcium mobilization
ERK1/2 = ERK1/2 (p42/p44-MAPK) phosphorylation immunoblot in prostate cancer cells
HT29 cells = assay: calcium mobilization assay in colon cancer HT29 cells
PC-3 cells [3] = assay: lamellipodia formation in PC-3 cells; format: cell-based, human; settings: PC-3, FIG. 41

## CCCCCCCC/C=C\CCCCCCCC(=O)OC[C@@H](O)COP(=O)(O)O
PKA
  activation of PKA: efficiently activate PKA
LNCaP cells
  calcium mobilization: no calcium mobilization
[1]
  induction of VASP phosphorylation at Ser157 PKA site: induced phosphorylation
p38-MAPK
  activation of p38-MAPK: activates
AKT
  activation of AKT: activates
PC-3 cells [2]
  EC50: 5 nM
ERK1/2; LNCaP cells, FIG. 52
  phosphorylation of p42 and p44 MAP kinase: no phosphorylation of p42 and p44 MAP kinase
ERK1/2; PC-3 and DU145 cells
  activation of p42/p44-MAPK: activates
HT29 cells; FIG. 3
  stimulation of calcium mobilization: stimulates calcium mobilization
HT29 cells; read-out: EC50 of calcium mobilization, 95% confidence about 8.2 to about 59.2 nM
  EC50: 22.1 nM
PC-3 cells [3]
  induction of lamellipodia formation: induces LPA2 receptor mediated lamellipodia formation
